The values that follow come from patent US20200362303A1, “MAINTENANCE-AND-AMPLIFICATION METHOD AND DIFFERENTIATION INDUCTION METHOD FOR PRIMORDIAL GERM CELLS/PRIMORDIAL GERM CELL-LIKE CELLS” (KYOTO UNIVERSITY, priority 2017, published 2020).

What all share (type): cell-based, mouse
In experiment [1] the test system is PGCLC induced from BVSCDT ESC(XY). Kind of experiment: Screening for factors inducing female germ cell fate: DT and BV expression by FACS at c7. Conditions: added from c3, read at c7; RA 100 nM, cytokines 500 ng/ml; BMPs in combination with RA. The protocol: (§1) The PGC/PGCLC expansion medium was constituted of 10% KSR, 2.5% FBS, 0.1 mM NEAA, 1 mM sodium pyruvate, 2 mM L-glutamine, 0.1 mM 2-mercaptoethanol, 100 U/ml penicillin, 0.1 mg/ml […] streptomycin, […] forskolin, and 10 μM rolipram. The entire medium was changed every 2 days from c3. Cytokines/compounds for induction of female fate were provided from c3 to the end of culture. RA and BMP concentrations used were 100 nM and 300 ng/ml, respectively, unless otherwise specified. Brightfield and fluorescence images were captured using an IX73 inverted microscope (Olympus).
The preparation of d4/c0 PGCLC for FACS is described in “ESC culture/induction and PGCLC induction/culture”. To isolate germ cells in vivo, fetal gonads of BVSC, VR or SG mice were cut and processed for FACS according to the procedure described for d4/c0 PGCLC. Culture PGCLC was also prepared by the same method except that, after dissociation, the cells were washed with 0.1% BSA-DMEM containing 100 μg/ml DNase (Sigma-Aldrich), lysed DNA from dead cells was digested to prevent the formation of cell/debris clumps. Fluorescent activity of BV/SG, SC, or DT/VR was detected with FITC, Horizon V500 or PE-Texas Red channels, respectively. FACS data was analyzed using FlowJo or FACS Diva software package. […]

A further experiment relates to PGC at E11.5. Nature of the experiment: Ex vivo culture of E11.5 PGC, SCP3/DDX4/SG expression at c4. Conditions: cultured 4 days; RA 100 nM, BMP2 300 ng/ml. An excerpt:
For PGC culture, fetal gonads of SG mice at E11.5 (without gender discrimination) were cut and dissociated. SG (+) PGCs were selected by FACS, plated on m220 feeder cells, and cultured in PGC/PGCLC expansion medium. Reagents for induction of female fate were provided from c0. For fetal gonadal culture, the ovary of the embryonic stage, including the E11.5 [identified by PCR (Primers)] mesonephros, was removed and cultured under conditions of the gas-liquid interface on the culture medium insert (353095; BD Falcon). The medium used was DMEM containing 10% FBS, 100 U/ml penicillin, 0.1 mg/ml streptomycin and 2 mM L-glutamine. Small molecule inhibitors were provided with medium from c0.
Immunofluorescence (IF) analysis was performed as described previously (Hayashi et al, 2012). The following primary antibodies were used: chicken anti-GFP (ab13970; Abeam), rabbit anti-DDX4 (ab13840; Abeam), mouse anti-DDX4 (ab27591; Abeam), rabbit anti-DAZL (ab34129; Abeam), goat anti-DAZL (sc-27333; Santa Cruz), rabbit anti-STRA8 (ab49602; Abeam), mouse anti-SYCP3 (ab97672; Abeam) and rabbit anti-TEX14 (ab41733; Abeam)IgG. […]

For the next experiment, the system named is cultured PGCLC. Kind of experiment: Immunofluorescence analysis of STRA8, SCP3, DDX4 in cultured PGCLC. Conditions: c9, BMP4, 5, 7 combined with RA, BMS493 with BMP2, LDN193189 with RA and BMP2. How it is done:
as §1
Immunofluorescence (IF) analysis was performed as described previously (Hayashi et al, 2012). The following primary antibodies were used: chicken anti-GFP (ab13970; Abeam), rabbit anti-DDX4 (ab13840; Abeam), mouse anti-DDX4 (ab27591; Abeam), rabbit anti-DAZL (ab34129; Abeam), goat anti-DAZL (sc-27333; Santa Cruz), rabbit anti-STRA8 (ab49602; Abeam), mouse anti-SYCP3 (ab97672; Abeam) and rabbit anti-TEX14 (ab41733; Abeam)IgG. The following secondary antibodies were used: Alexa Fluor 488-goat anti-mouse or chicken IgG; Alexa Fluor 568-goat anti-rabbit IgG and Alexa Fluor 633-goat anti-mouse, anti-chicken IgG; Alexa Fluor 488-donkey anti-mouse IgG; Alexa Fluor 568-donkey anti-rabbit IgG and Alexa Fluor 633-donkey anti-goat IgG. IF images were acquired using a confocal microscope [FV1000 (Olympus) or LSM780 (Zeiss)].

With “BMP2: bone morphogenetic protein 2 cytokine (R&D Systems)”, the “DT and BV expression in BV (+) cells” value in experiment [1] was “strongly activated DT and simultaneously down-regulated BV”. For the same substance, the “SCP3-positive (+)/DDX4-strongly positive (+)/SG-negative (−) cells” value in the experiment with PGC at E11.5 is around 22.9%. Besides, in the experiment on cultured PGCLC, the “induction of VR/DDX4 and SCP3 (+) cells (meiotic entry)” value is “induced VR and SCP3 (+) mitotic cells”.
